Like-named read-outs stand apart in the source and are kept apart here.
Experiments:
[1] = target: nicotinic receptors (rat brain membranes); conditions: read-out: 3H-MCC Binding IC50
[2] = target: nicotinic receptors (rat brain membranes); format: binding; conditions: for IC50: read-out: 3H-Nicotine Binding IC50

COC(=O)[C@H]1[C@@H](OC(=O)c2ccccc2)C[C@@H]2CC[C@H]1N2C [cocaine, reference compound]
IC50 [1]: > 100 µM
IC50 [2]: > 100 µM

CCN(CC)CCOC(=O)c1ccc(N)cc1 [procaine, reference compound]
IC50 [1]: 30 µM
binding affinity for nicotine receptor, in words [2]: some binding affinity
IC50 [2]: 70 µM

— patent US4835162A (priority 1987, dated 1989)
